The values below come from PubChem BioAssay AID720717 (ICCB-Longwood Screening Facility, Harvard Medical School, 2013).

“And” between values parts separate entries of the source, which are not always exact repeats. Equal entries are not always repeated. This is a selection; strong and weak results do not stand in their true shares. The source made the active and inactive calls.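 Rule for the calls: active = both repeat wells score below -2 in polarization z-score versus plate sample wells, excluding overly bright wells; inactive = the rest.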

This test deals with LANA (ORF73) N-terminal peptide binding to nucleosomes, Human herpesvirus 8. Briefly: LANA N-terminal peptide–nucleosome interaction blockers – biochemical, fluorescence polarization, FITC-LANA1-23, chicken nucleosomes, primary screen (AID 720717). The note with it: FITC-LANA1-23 / chicken nucleosome fluorescence polarization; hits give low values. In outline: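 System – purified chicken nucleosomes with FITC-labelled LANA N-terminal peptide (1-23) · Amount – 240 nM purified chicken nucleosomes (480 nM peptide binding sites), final · Also added – 50 nM FITC-LANA1-23 probe · Medium – TEN-BT buffer, pH 7.5 · Incubation – compound with peptide–nucleosome mix 10–45 min at room temperature · Detection – fluorescence polarization, ex 480 nm, em 535 nm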
(Fluorescence polarisation rises when a labelled molecule tumbles more slowly, as on binding a larger partner.)
For the molecule `CN(CCCl)CCCl`, the z-score was inactive: -0.524 and inactive: 0.546.
